Two molecules from BindingDB's records for doi:10.1021/jm00089a014 (Genentech, 1992) can be followed below.

By UniProt entry, the sequences of proteins in these tests, tags left out. Residues count along the entry.
UniProt P08514, 32-887 limits assumed: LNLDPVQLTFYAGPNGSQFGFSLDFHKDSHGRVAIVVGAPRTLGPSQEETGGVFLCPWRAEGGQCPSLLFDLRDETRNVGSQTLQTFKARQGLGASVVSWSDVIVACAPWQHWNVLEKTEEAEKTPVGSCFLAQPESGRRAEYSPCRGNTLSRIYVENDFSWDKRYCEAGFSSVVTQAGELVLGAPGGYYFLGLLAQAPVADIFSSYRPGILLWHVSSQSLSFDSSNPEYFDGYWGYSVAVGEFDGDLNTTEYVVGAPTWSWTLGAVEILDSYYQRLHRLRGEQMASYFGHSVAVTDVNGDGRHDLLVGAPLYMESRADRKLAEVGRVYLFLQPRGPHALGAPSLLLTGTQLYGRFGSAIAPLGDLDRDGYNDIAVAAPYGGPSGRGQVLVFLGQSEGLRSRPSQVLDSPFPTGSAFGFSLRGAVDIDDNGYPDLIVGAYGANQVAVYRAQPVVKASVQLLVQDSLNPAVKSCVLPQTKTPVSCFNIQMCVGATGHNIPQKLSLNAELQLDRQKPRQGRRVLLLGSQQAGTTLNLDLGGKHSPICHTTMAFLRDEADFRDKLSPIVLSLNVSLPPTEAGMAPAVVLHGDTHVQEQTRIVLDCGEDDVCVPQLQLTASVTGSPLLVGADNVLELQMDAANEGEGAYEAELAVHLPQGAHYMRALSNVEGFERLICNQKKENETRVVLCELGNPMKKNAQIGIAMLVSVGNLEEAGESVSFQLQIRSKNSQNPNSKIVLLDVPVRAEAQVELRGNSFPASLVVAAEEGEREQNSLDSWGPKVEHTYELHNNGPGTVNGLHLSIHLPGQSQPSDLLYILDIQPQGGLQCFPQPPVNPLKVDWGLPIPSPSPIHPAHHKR
UniProt P08514, 891-1039 limits assumed: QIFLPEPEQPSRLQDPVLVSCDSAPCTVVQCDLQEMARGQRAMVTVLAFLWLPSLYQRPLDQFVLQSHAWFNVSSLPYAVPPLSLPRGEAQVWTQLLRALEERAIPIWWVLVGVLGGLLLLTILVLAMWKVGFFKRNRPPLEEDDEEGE
UniProt P05106, 27-788 limits assumed: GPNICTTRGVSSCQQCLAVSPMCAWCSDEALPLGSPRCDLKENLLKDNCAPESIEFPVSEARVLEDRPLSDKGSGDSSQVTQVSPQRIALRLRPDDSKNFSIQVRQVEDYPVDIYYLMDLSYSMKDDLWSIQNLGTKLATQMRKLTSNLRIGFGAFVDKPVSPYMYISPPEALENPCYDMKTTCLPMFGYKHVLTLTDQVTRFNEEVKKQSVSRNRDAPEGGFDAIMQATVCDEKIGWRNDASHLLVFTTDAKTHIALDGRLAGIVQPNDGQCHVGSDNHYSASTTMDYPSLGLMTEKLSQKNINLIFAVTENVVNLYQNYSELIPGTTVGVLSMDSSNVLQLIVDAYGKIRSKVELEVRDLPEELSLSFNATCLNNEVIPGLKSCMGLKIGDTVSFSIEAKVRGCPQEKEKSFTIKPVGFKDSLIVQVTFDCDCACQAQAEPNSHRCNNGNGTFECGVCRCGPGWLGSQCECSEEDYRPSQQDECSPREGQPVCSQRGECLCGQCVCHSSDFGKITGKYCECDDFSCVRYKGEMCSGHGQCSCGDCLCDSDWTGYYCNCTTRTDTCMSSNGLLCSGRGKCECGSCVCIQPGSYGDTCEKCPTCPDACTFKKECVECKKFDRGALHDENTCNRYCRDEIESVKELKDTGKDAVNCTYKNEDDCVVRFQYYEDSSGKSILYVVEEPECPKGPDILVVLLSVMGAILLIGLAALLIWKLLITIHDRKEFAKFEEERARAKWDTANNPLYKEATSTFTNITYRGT

The target of the assay is Integrin alpha-IIb/beta-3 (Homo sapiens, UniProt P08514+P05106). The assay is described as follows: Inhibition of ADP-induced platelet aggregation in human platelet-rich plasma. The procedure, abridged: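 Human blood drawn into 3.8% sodium citrate (9:1); PRP from 180g spin, 12 min, 22 °C; count adjusted to 3 × 10^8/mL with PPP. PRP preincubated with test sample 5 min at 37 °C in aggregometer, then ADP 17.2 µM final. Inhibition from transmittance change at 5 min versus no-sample maximum; 12-14 concentrations over ~200-fold range; IC50 by four-parameter fit; n ≥ 3.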

With `N=C(N)NCCC[C@H](NC(=O)CN)C(=O)NCC(=O)N[C@@H](CC(=O)O)C(=O)N[C@@H](CO)C(=O)O`, the IC50 (as a rule, the midpoint of a concentration-inhibition curve) came out at 160 µM.
Take `N=C(N)NCCC[C@H](NC(=O)CN)C(=O)NCC(=O)N[C@@H](CC(=O)O)C(=O)N[C@@H](Cc1ccccc1)C(=O)O`: half-maximal inhibition (IC50) required 20 µM.
